ChEMBL document CHEMBL1136784, “Synthesis and biological evaluation of 14-alkoxymorphinans. 18. N-substituted 14-phenylpropyloxymorphinan-6-ones with unanticipated agonist properties: extending the scope of common structure-activity relationships” (J Med Chem, 2003)

Target: Opioid receptors; mu and delta (Mus musculus) (UniProt P42866+P32300)
Test: In vivo antinociceptive activity was determined upon subcutaneous administration in the mouse paraphenylquinone writhing test
Type: functional, organism-based

SMILES: O=C1CC[C@@]2(OCCCc3ccccc3)[C@H]3Cc4ccc(O)c5c4[C@@]2(CCN3CCc2ccccc2)[C@H]1O5
- ED50: 9 µg/kg
